Test results as given in patent US20160082109A1, “COPOLYMER AND NANOPARTICLES OBTAINED THEREFROM FOR DRUG DELIVERY” (FONDAZIONE ISTITUTO ITALIANO DI TECNOLOGIA, priority 2013, published 2016).

Format: physicochemical
Experimental: The tests were conducted on 2±0.3 mg of polymer, placed in polypropyplene vials filled with 1 ml of deionized H2O and kept in a thermostatic bath at 37° C. for 33 days. At regular intervals the samples were withdrawn, the degradation medium was separated for evaluation of the pH while the degraded polymers were dried in a ventilated stove at 50° C. for 3 h and then analysed by gel permeation chromatography (GPC).
The pH measurements were conducted on the degradation means (deionized H2O) after pre-set times. In particular, the degradation means were withdrawn from the vials containing the polymer, prepared as reported in example 1, during the degradation tests in the previous example and the measurement was performed using a pH-meter on the samples just taken at a temperature of 37° C.

pH of the degradation means (lower values / end of the test): approximately 4
Substance: polylactic-co-glycolic acid) [PLGA]
